Measured values as given in patent publication US6713266B1 (Isodiagnostika Inc., priority 1998, dated 2004).

Tests used:
Type in all cases: binding
[1] = system: Mouse polyclonal sera (CSA-DVS-KLH immunogen); experiment: Antigen panel (direct) ELISA, mouse polyclonal sera; details: for Percent reactivity: OD to test antigen / OD to CSA-DVS-HSA × 100; for OD: coated test antigen
Method: (§1) 1. Use Falcon Pro-bind immunoplate.
(§2) 2. Dilute coating antigen (Ag) to 1.0 μg/mL in carbonate-bicarbonate buffer. Use glass tubes.
(§3) 3. Add 100 μL to each well of plate. Store overnight at 4° C.
(§4) 4. Shake out wells and wash 3× with 200 μL PBS/0.05% TWEEN™ (polyoxyethylene-sorbitol) (v/v) per well.
(§5) 5. Add blocking buffer, 200 μL per well (PBS/2% BSA (w/v)). Incubate for 60 min at 37° C.
(§6) 7. Add 100 μL per well of test antibody appropriately diluted in PBS/0.1% Tween (v/v). Incubate 60 min at 37° C.
(§7) 9. Dilute alkaline phosphatase conjugated anti-mouse IgG (Pierce cat #31322) in PBS/0.1% TWEEN™ (polyoxyethylene-sorbitol) (v/v) to 1:2000 concentration. Add 100 μL per well and incubate at 37° C. for 60 min.
(§8) 10. Wash 3× as in step 4.
(§9) 11. Prepare enzyme substrate using Sigma #104 alkaline phosphatase substrate tablets (1 mg/mL in 10% diethanolamine (v/v) substrate buffer). Add 100 μL per well and incubate in the dark at room temperature. Absorbance can be read at 405 nm at approximately 15-min intervals.
These sera had low reactivity to the AM19-9-DVS-HSA conjugate.

[2] = system: Mouse polyclonal sera (AM1-DVS-KLH immunogens); experiment: as above; details: for Percent reactivity: OD to test antigen / OD to CSA-DVS-HSA × 100; for OD: coated test antigen
Method: as §1, §2, §3, §4, §5, §6, §7, §8, §9
Individual mouse sera collected 10 days post-secondary and tertiary immunizations were assayed for antibody titre by direct ELISA. Mice having high anti-CSA titres were assayed for specificity by antigen panel reactivity.

[3] = system: Mouse polyclonal sera (AM19-1-DVS (1) - KLH immunogen); experiment: as above; details: for Percent reactivity: OD to test antigen/OD to AM19-1-DVS (1) × 100; for OD: coated test antigen
Method: as §1, §2, §3, §4, §5, §6, §7, §8, §9
(§10) These serum samples were assayed by direct ELISA for antibody titre to specific haptens. Sera showing high antibody reactivity to AM19 were further characterized by antigen panel ELISA (Table 6).

[4] = system: Mouse polyclonal sera (AM19-1-DVS (2) - KLH immunogen); experiment: as above; details: for Percent reactivity: OD to test antigen/OD to AM19-1-DVS (2) × 100; for OD: coated test antigen
Method: as §1, §2, §3, §4, §5, §6, §7, §8, §9, §10

[5] = system: Mouse polyclonal sera (AM19-9-DVS-KLH immunogens); experiment: as above; details: for Percent reactivity: OD to test antigen / OD to AM19-9-DVS-HSA × 100; for OD: coated test antigen
Method: as §1, §2, §3, §4, §5, §6, §7, §8, §9
Sera from mice immunized with the AM19-9-DVS immunogen showing high reactivity to the AM19-9-DVS hapten were further characterized by antigen panel ELISA (Table 9).

[6] = system: Mouse polyclonal sera (AM9-1-DVS-KLH immunogen); experiment: as above; details: for Percent reactivity: OD to test antigen / OD to AM9-1-DVS-HSA × 100; for OD: coated test antigen
Method: as §1, §2, §3, §4, §5, §6, §7, §8, §9
The reduction in antibody binding to the AM19-9 hapten is presumed to be due to masking of the epitope recognition site, (i.e., blocking the modified a.a. #9 residue with the DVS linker arm would thereby block Ab/Ag interaction). […] Screening for specific anti-AM9 MoAbs can also be achieved.

[7] = system: Mouse polyclonal sera (AM9-9-DVS-KLH immunogen); experiment: as above; details: for Percent reactivity: OD to test antigen/ OD to AM19-9-DVS-HSA × 100; for OD: coated test antigen
Method: as §1, §2, §3, §4, §5, §6, §7, §8, §9
Sera from mice immunized with the AM9-9-DVS immunogen which reacted strongly to the AM19-9-DVS hapten were further characterized by antigen panel ELISA (Table 13). Sera from these mice recognize epitopes on the AM19-9-DVS-HSA molecule. […] The reduction in antibody binding to panel antigens coupled through the amino acid #1 residue is presumed to be due to masking of the Ab epitope recognition site. As the AM9-9-DVS immunogens would present the amino acid #1 face of the molecule for immune recognition, blocking the amino acid #1 residue with the DVS linker arm would thereby block Ab/Ag interaction.

[8] = system: Mouse monoclonal antibody CSA-1H6; experiment: Antigen panel (direct) ELISA, MoAb tissue culture supernatant; details: for Percent reactivity: CSA-1H6, OD to test antigen / OD to CSA-DVS-HSA × 100; for OD: CSA-1H6 TCS, coated test antigen
Method: as §1, §2, §3, §4, §5, §6, §7, §8, §9
(§11) Spleen cells from mice immunized with the CSA-DVS conjugate have been used to prepare monoclonal antibody secreting hybridoma clones. IgM and IgG anti-CSA secreting clones have been isolated. Table 15 illustrates the reactivity of tissue culture supernatants (TCS) from two of these anti-CSA MoAbs (CSA-1H6 and CSA-2G9).

[9] = system: Mouse monoclonal antibody CSA-2G9; experiment: as above; details: for Percent reactivity: CSA-2G9, OD to test antigen / OD to CSA-DVS-HSA × 100; for OD: CSA-2G9 TCS, coated test antigen
Method: as §1, §2, §3, §4, §5, §6, §7, §8, §9, §11

[10] = system: Mouse monoclonal antibody AM1-2E10; experiment: as above; details: for Percent reactivity: AM1-2E10, OD to test antigen / OD to CSA-DVS-HSA × 100; for OD: AM1-2E10 TCS, coated test antigen
Method: as §1, §2, §3, §4, §5, §6, §7, §8, §9
(§12) Spleen cells from mice immunized with the AM1-DVS conjugates have been used to prepare monoclonal antibody secreting hybridoma cells. IgM and IgG anti-CSA MoAbs have been isolated by direct ELISA to CSA-DVS-HSA conjugates. Table 17 illustrates the reactivity of TCS from two of these monoclonal antibody clones (AM1-2E10 and Am1-7F5).

[11] = system: Mouse monoclonal antibody AM1-7F5; experiment: as above; details: for Percent reactivity: AM1-7F5, OD to test antigen / OD to CSA-DVS-HSA × 100; for OD: AM1-7F5 TCS, coated test antigen
Method: as §1, §2, §3, §4, §5, §6, §7, §8, §9, §12

[12] = system: Mouse monoclonal antibody AM19-1-7E12-1; experiment: as above; details: for Percent reactivity: AM19-1-7E12-1, OD to test antigen / OD to AM19-1-DVS (1)-HSA × 100; for OD: AM19-1-7E12-1 TCS, coated test antigen
Method: as §1, §2, §3, §4, §5, §6, §7, §8, §9
(§13) Spleen cells from mice immunized with the AM19-1-DVS (1) conjugate have been used to prepare MoAb secreting hybridoma cells. Anti-AM19-1-DVS (1) ELISA reactive IgM and IgG MoAb isotypes have been isolated. Table 19 illustrates the reactivity of TCS from two of these anti-AM19-1-DVS MoAbs (AM19-1-7E12-1 and AM19-1-7E12-2).

[13] = system: Mouse monoclonal antibody AM19-1-7E12-2; experiment: as above; details: for Percent reactivity: AM19-1-7E12-2, OD to test antigen / OD to AM19-1-DVS (1)-HSA × 100; for OD: AM19-1-7E12-2 TCS, coated test antigen
Method: as §1, §2, §3, §4, §5, §6, §7, §8, §9, §13

With “AM19-1-DVS-HSA (2): AM19-DVS hapten (DVS through primary hydroxyl of amino acid 1) conjugated to HSA” the Percent reactivity ([1]; Mouse 1) was >100%, the OD ([1]; Mouse 1) was 1.212 and the Percent reactivity ([1]; Mouse 2) was >100%. The OD ([1]; Mouse 2) was 1.128, the Percent reactivity ([2]; Mouse 1) was >100% and the OD ([2]; Mouse 1) was 0.982. For the same substance, the Percent reactivity ([2]; Mouse 2) was >100%, the OD ([2]; Mouse 2) was 1.187 and the Percent reactivity ([3]; Mouse 1) was 92.0%. The OD ([3]; Mouse 1) was 3.020, the Percent reactivity ([3]; Mouse 2) was >100% and the OD ([3]; Mouse 2) was 3.188. It also gave a Percent reactivity ([4]; Mouse 3) of 100%, an OD ([4]; Mouse 3) of 1.411 and a Percent reactivity ([4]; Mouse 4) of 100%. The OD ([4]; Mouse 4) was 2.573, the Percent reactivity ([5]; Mouse 5) was 5.2% and the OD ([5]; Mouse 5) was 0.167. For the same substance, the Percent reactivity ([5]; Mouse 6) was 29.6%, the OD ([5]; Mouse 6) was 0.968 and the Percent reactivity ([6]; Mouse 1) was >100%. The OD ([6]; Mouse 1) was 2.171, the Percent reactivity ([6]; Mouse 2) was >100% and the OD ([6]; Mouse 2) was 2.859. It also gave a Percent reactivity ([7]; Mouse 1) of 0%, an OD ([7]; Mouse 1) of 0.015 and a Percent reactivity ([7]; Mouse 2) of 0%. For the same substance, the OD ([7]; Mouse 2) was 0, the Percent reactivity ([7]; Mouse 3) was 0% and the OD ([7]; Mouse 3) was 0. The Percent reactivity [8] was >100%, the OD [8] was 1.870 and the Percent reactivity [9] was >100%. The OD [9] was 3.219, the Percent reactivity [10] was >100% and the OD [10] was 1.793. For the same substance, the Percent reactivity [11] was >100%, the OD [11] was 3.372 and the Percent reactivity [12] was >100%. For the same substance, the OD [12] was 3.405, the Percent reactivity [13] was >100% and the OD [13] was 3.504.

Work on “AM19-9-DVS-HSA: AM19-DVS hapten (DVS through hydroxyl of amino acid 9) conjugated to HSA” yielded a Percent reactivity ([1]; Mouse 1) of 29.3%, an OD ([1]; Mouse 1) of 0.290 and a Percent reactivity ([1]; Mouse 2) of 46.4%. It also gave an OD ([1]; Mouse 2) of 0.453, a Percent reactivity ([2]; Mouse 1) of 61.9% and an OD ([2]; Mouse 1) of 0.483. It also gave a Percent reactivity ([2]; Mouse 2) of 93.7%, an OD ([2]; Mouse 2) of 0.583 and a Percent reactivity ([3]; Mouse 1) of 96.6%. It also gave an OD ([3]; Mouse 1) of 3.17, a Percent reactivity ([3]; Mouse 2) of 79.6% and an OD ([3]; Mouse 2) of 2.409. The Percent reactivity ([4]; Mouse 3) was 45.8%, the OD ([4]; Mouse 3) was 0.646 and the Percent reactivity ([4]; Mouse 4) was 42.4%. For the same substance, the OD ([4]; Mouse 4) was 1.091, the Percent reactivity ([5]; Mouse 5) was 100% and the OD ([5]; Mouse 5) was 3.231. For the same substance, the Percent reactivity ([5]; Mouse 6) was 100%, the OD ([5]; Mouse 6) was 3.267 and the Percent reactivity ([6]; Mouse 1) was 57.7%. The OD ([6]; Mouse 1) was 1.119, the Percent reactivity ([6]; Mouse 2) was 67.3% and the OD ([6]; Mouse 2) was 1.644. For the same substance, the Percent reactivity ([7]; Mouse 1) was 100%, the OD ([7]; Mouse 1) was 3.077 and the Percent reactivity ([7]; Mouse 2) was 100%. It also gave an OD ([7]; Mouse 2) of 0.618, a Percent reactivity ([7]; Mouse 3) of 100% and an OD ([7]; Mouse 3) of 1.802. The Percent reactivity [8] was 33.7%, the OD [8] was 0.511 and the Percent reactivity [9] was 11.7%. For the same substance, the OD [9] was 0.323, the Percent reactivity [10] was 17.5% and the OD [10] was 0.270. For the same substance, the Percent reactivity [11] was 40.1%, the OD [11] was 0.790 and the Percent reactivity [12] was 89.4%. The OD [12] was 2.883, the Percent reactivity [13] was 64.3% and the OD [13] was 2.132.
